# Apparent affinities of Ab-91 variants for a coronavirus HR2 peptide

Target: peptide PDVDLGDISGINAS, taken from heptad repeat 2 (HR2) of SARS-CoV-2 spike.

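The parent was found by panning a naive human phage display library on the peptide. Library AAYL51 holds single substitutions and randomly drawn double and triple substitutions in the CDRs. Affinity was read by AlphaSeq, a pooled yeast mating assay with surface-displayed partners. After mating in shaken culture at 30 °C for 16 h, diploids were selected and their barcode pairs sequenced. Each replicate has its own calibration line, from reference interactions of the BCL2 family. There are three technical replicates.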

Parent: Ab-91, a human scFv built as VL, a 15-residue (Gly4Ser)3 linker, VH. Only the CDRs of the heavy chain vary.
VL: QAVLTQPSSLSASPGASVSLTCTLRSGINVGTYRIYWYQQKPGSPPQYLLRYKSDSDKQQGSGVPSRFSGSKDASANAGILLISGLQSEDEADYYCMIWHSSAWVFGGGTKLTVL
VH: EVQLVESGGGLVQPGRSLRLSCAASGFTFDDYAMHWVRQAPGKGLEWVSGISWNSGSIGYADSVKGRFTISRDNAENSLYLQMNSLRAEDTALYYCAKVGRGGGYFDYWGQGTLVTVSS

Variants are written as CDR1, CDR2 and CDR3 of the heavy chain (limits as in the source). Parent: GFTFDDYAMH, GISWNSGSIGYADSVK, VGRGGGYFDY. Numbers give log10(Kd / nM), so 0 is 1 nM and 3 is 1 µM. Smaller is tighter. The mean shown is taken over the replicates in which the pair was detected. "nd" marks a missing value. The strain was present, yet no cells mated with the target were sequenced in that replicate, which points to weak or no binding. Parent in this assay: reference entry 1.86, copy in this library 0.88. Background: pairings of library AAYL51 with three empty control strains gave a value in 21% of cases (median 4.54, 5th percentile 3.26). Values in that range, when seen in few replicates, are hard to tell from nonspecific mating. The control count says in how many pairings with the empty strains this scFv gave a signal.

The variant GFTFDDLAMH / KISWNSGSIGYADSVK / VGRGRGYFDY gave 3.56, nd, 3.65 (mean 3.60; controls 0 of 9).
The variant GPTFDDYAMH / GQSWNSGSIGYADSVK / VGRGGGYRDY gave nd, nd, nd (controls 0 of 9).
The variant GFTFDDYAMH / GISWNSGSIGYADSEK / VGWGGGYPDY gave 4.88, 4.26, nd (mean 4.57; controls 5 of 9).
The variant GFTFDDYEMH / GISWNSGSIGYADSGK / VGRGGDYFDY gave nd, nd, nd (controls 3 of 9).
The variant PFTFDDYAMH / GISWNSGSIGYAMSPK / VGRGGGYFDY gave nd, nd, nd (controls 1 of 9).
The variant GFTFDDYAMH / GIMWNSGSIGYADSVK / VGRAGGYFDA gave 5.71, nd, 5.11 (mean 5.41; controls 3 of 9).
The variant GFTFDDYAMT / GISWNSGSIGYADSVF / VGRGGGYFVY gave 5.36, nd, nd (controls 4 of 9).
The variant GFTFDDYAMH / GISWNSGSIGYADSVK / VGMGRGYQDY gave nd, 4.83, nd (controls 1 of 9).
The variant GFTFDIYMMH / GISWNSGSIGYADSVK / VGRGMGYFDY gave nd, nd, nd (controls 0 of 9).
The variant GFTFDKYAMH / FISWNSGSIGYEDSVK / VGRGGGYFDY gave 3.05, nd, nd (controls 1 of 9).
The variant FFTFDDYAMH / GISWMSGSIGYADSVK / VGRGGGYFDA gave 1.62, 1.62, 0.88 (mean 1.37; controls 2 of 9).
The variant GFTFDDYDMH / GISWNSGYIGYADSVK / VGRGGGYHDY gave nd, nd, nd (controls 0 of 9).
The variant GFTFDDTAMH / GISWNSGSIGYADDVK / VGRGGGWFDY gave nd, nd, nd (controls 0 of 9).
The variant GFTFDDYAMH / GISWNSGSIGYADSVK / VPWGGGYFDY gave nd, nd, nd (controls 0 of 9).
The variant GFYFDDYACG / GISWNSGSIGYADSVK / VGRGGGYFDY gave 4.21, 4.71, 5.91 (mean 4.94; controls 9 of 9).
The variant GFTFDDYAMH / GISWVSGSIGYADIVK / VGRGDGYFDY gave nd, nd, nd (controls 0 of 9).
The variant GFTFDDYAMH / GISWTSGSIGYADSVK / VERGGIYFDY gave nd, nd, nd (controls 0 of 9).
The variant GFTFDHYAMH / GDSWNSGSIGYADSVK / VPRGGGYFDY gave 3.80, 5.47, nd (mean 4.63; controls 4 of 9).
The variant GFTFDDYAMH / GISWNSGSISYADSVK / VGRQGGHFDY gave nd, nd, nd (controls 0 of 9).
The variant GFTFDDYAMH / GISWNSGSHGYADGVK / VGRGGGYFDY gave nd, nd, nd (controls 0 of 9).
The variant GFTFDDYAMH / GLSWNSGSIGYADDVK / VGTGGGYFDY gave 2.89, 4.46, 2.82 (mean 3.39; controls 2 of 9).
The variant GFTFDDYAMH / GGSWNSGSIFYADSVK / VGRGGGTFDY gave 6.58, 6.59, nd (mean 6.59; controls 4 of 9).
The variant GFTDDDYAMH / GISWNSGSIGYADSVK / VGRGGGYRDK gave nd, nd, nd (controls 0 of 9).
The variant GFTFDDYAMH / GISWNSGSIGNADSVK / VGCGGIYFDY gave nd, nd, nd (controls 0 of 9).
The variant GFTFDDYAYH / GISWKSGSIGYADSVK / VGRGAGYFDY gave nd, 4.78, nd (controls 5 of 9).
The variant GFTFDDYAMH / GISWNAYSIGYADSVK / VGRGGGYFWY gave nd, nd, 3.95 (controls 2 of 9).
The variant GNTFADYAMH / GISWNSGSIGYADSVK / VGPGGGYFDY gave nd, nd, nd (controls 4 of 9).
The variant GFTFDDYAMH / GISYNSGSIGYAESYK / VGRGGGYFDY gave 0.83, 0.85, 0.06 (mean 0.58; controls 2 of 9).
The variant GFTFDDYAMH / GISWNSGQIGYADSVK / LGCGGGYFDY gave nd, nd, nd (controls 1 of 9).
The variant GFEFDDYADH / GISWNSGSIGYADSVK / CGRGGGYFDY gave nd, 4.55, nd (controls 0 of 9).
The variant GFTFDDYAMH / GISWNSGRIGYADMVK / VGRGGGGFDY gave nd, 4.33, 4.73 (mean 4.53; controls 0 of 9).
The variant GFAFDDYAMH / GISWNSGSIEYADSVK / VGRGHGYFDY gave 4.00, nd, 2.68 (mean 3.34; controls 1 of 9).
The variant GFTFDDYAMH / CISWNSGSIGYVDSVK / VGRGGGYFLY gave nd, nd, nd (controls 1 of 9).
The variant GFTFDQYAMH / GISHTSGSIGYADSVK / VGRGGGYFDY gave nd, nd, nd (controls 0 of 9).
The variant GFTFDDYAMH / GISWNSGSAGYADSVK / VGRGMGPFDY gave 5.15, nd, 5.03 (mean 5.09; controls 6 of 9).
The variant GKTFDDYAMI / GISWNSGSIGYADSMK / VGRGGGYFDY gave 5.22, 4.47, nd (mean 4.84; controls 5 of 9).
The variant GFTFPLYAMH / GISWNSGSIGYADSVK / VGRGGGYFDN gave 0.90, 0.88, 0.44 (mean 0.74; controls 6 of 9).
The variant GFTFDDYAMD / GISWNSGVIGYADSVK / VGRGQGYFDY gave nd, nd, nd (controls 1 of 9).
The variant GFDFDDYAMH / GISWNSGSHGYADSVK / VGRGGGYFDY gave 2.30, 2.31, 2.48 (mean 2.36; controls 3 of 9).
The variant GFTFDDYAMT / GISINSGSIGYRDSVK / VGRGGGYFDY gave nd, nd, nd (controls 0 of 9).

The first 4 variants above that were never detected:

| CDR-H1 | CDR-H2 | CDR-H3 | replicates, log10 nM | mean, log10 nM | empty controls |
|---|---|---|---|---|---|
| GPTFDDYAMH | GQSWNSGSIGYADSVK | VGRGGGYRDY | nd, nd, nd | nd | 0/9 |
| GFTFDDYEMH | GISWNSGSIGYADSGK | VGRGGDYFDY | nd, nd, nd | nd | 3/9 |
| PFTFDDYAMH | GISWNSGSIGYAMSPK | VGRGGGYFDY | nd, nd, nd | nd | 1/9 |
| GFTFDIYMMH | GISWNSGSIGYADSVK | VGRGMGYFDY | nd, nd, nd | nd | 0/9 |

Data: MIT Lincoln Laboratory AlphaSeq set, Engelhart et al. 2022, doi:10.1038/s41597-022-01779-4, as distributed in FLAb.